Laboratory results taken from patent US8980910B2, “Treatment of glaucoma” (Indiana University Research and Technology Corporation, priority 2011, dated 2015).
Entries after “also recorded” stand apart in the source; their conditions may differ.

Columns and labels:
[1] = tested on: ORX1 over ORX2 receptors; details: cited from earlier work
[2] = tested on: panic-prone rats; details: 30 mg/kg i.p. prior to 15 min i.v. infusion of 0.5M sodium lactate
Text: Panic disorder is associated with disruption of central inhibitory gamma-aminobutyric acid (GABAergic) tone, and may contribute to panic attacks which are consistently provoked by ordinarily mild physical stressors such as mild osmotic disturbances (e.g., intravenous sodium lactate challenges). […] Orexin/hypocretin producing neurons are almost exclusive to dorsomedial hypothalamus/perifornical area and adjacent lateral hypothalamus, and play a critical role in maintaining wakefulness, vigilance and central sympathetic mobilization, which are key components of panic and anxiety. Experiments were conducted to investigate whether the administration of either a systemic orexin 1 antagonist or silencing the hypothalamic orexin gene product with RNA interference could block lactate-induced panic responses.

Cc1nc2ccc(NC(=O)Nc3ccnc4cccnc34)cc2o1 [SB334867, 1-(2-methylbenzoxazol-6-yl)-3-[1,5]naphthyridin-4-yl urea]
selectivity for ORX1 over ORX2 receptors [1]: around 100 ×
"anxiety"-like responses [social interaction (SI) duration] after sodium lactate ([2]; FIG. 1B): attenuated; also recorded: blocks
lactate induced increases in general locomotor activity (flight behavior) ([2]; FIG. 1E): attenuated; also recorded: blocks
